Here are results for 1 molecule from publication PMC3549253, “Effect of repetitive lysine–tryptophan motifs on the bactericidal activity of antimicrobial peptides” (Amino Acids, 2012).

The test system of one data set is human red blood cells. The data set is described as follows: Human red blood cell (hRBC) hemolysis. In kind it is cell-based. Here is the method: Hemolytic activities of the peptides were assessed using heparinized hRBCs collected from healthy donors. Fresh hRBCs were washed three times by centrifugation at 800×g for 10 min in PBS (pH 7.2) and then resuspended in PBS. The peptides were then dissolved in PBS and added to 100 μl of stock hRBCs suspended in PBS (final RBC concentration, 4 % v/v), after which the samples were incubated with gentle agitation for 60 min at 37° C before centrifugation for 10 min at 800×g. Absorbance of the supernatants was recorded at 414 nm. In addition, control samples for zero hemolysis and 100 % hemolysis were incubated with PBS (A blank) or 0.1 % Triton X-100 (A triton), respectively. Melittin was used as a reference hemolytic peptide. Percent hemolysis was calculated according to the following equation: Each measurement was conducted in triplicate (Kim et al. [2011]).

Data set [1] has as its system Pseudomonas aeruginosa (KCTC 1637). In kind it is cell-based. The conditions noted are these: 2 × 10^5 CFU/ml, 24 h at 37° C, average of 3–4 independent experiments. An excerpt:
(§1) Escherichia coli (KCTC 1682), Salmonella typhimurium (KCTC 1926), Pseudomonas aeruginosa (KCTC 1637), Staphylococcus aureus (KCTC 1621), Bacillus subtilis (KCTC 1918), and Listeria monocytogenes (KCTC 3710) were obtained from the Korean Collection for Type Cultures (KCTC). Drug-resistant E. coli strains (CCARM 1229 and CCARM 1238), S. typhimurium strains (CCARM 8007, CCARM 8009, and CCARM 8013), and S. aureus strains (CCARM 3089, CCARM 3090, CCARM 3108, CCARM 3114, and CCARM 3126) were from the Culture Collection of Antibiotic-Resistant Microbes (CCARM) at Seoul Women’s University, Korea.
(§2) The antibacterial activities of the peptides against Gram-negative, Gram-positive and antibiotic-resistant bacterial strains were evaluated using the microbroth dilution method (Park et al. [2003]). Aliquots of culture medium containing bacterial suspensions in mid-logarithmic phase at a concentration of 2 × 10^5 colony forming units (CFU)/ml were added to each well of a multiwell plate containing peptide solution serially diluted 2× in 10 mM sodium phosphate buffer (pH 7.2) or phosphate-buffered saline (PBS, 1.5 mM KH2PO4, 2.7 mM KCl, 8.1 mM Na2HPO4, 150 mM NaCl, pH 7.2). Growth inhibition was evaluated by measuring the absorbance at 620 nm using a Versa-Max microplate Elisa Reader (Molecular Devices Co., Sunnyvale, CA, USA) after 24 h of incubation at 37° C. […] All MIC measurements were the average of 3–4 independent experiments.

Data set [2] concerns Escherichia coli (KCTC 1682). In kind it is cell-based. The settings on record: 2 × 10^5 CFU/ml, 24 h at 37° C, absorbance 620 nm, average of 3–4 independent experiments.
Excerpt: as §1, §2

Data set [3] has as its system Staphylococcus aureus (KCTC 1621). The class given is cell-based. The conditions noted are these: 2 × 10^5 CFU/ml, 24 h at 37° C, average of 3–4 independent experiments.
Excerpt: as §1, §2

The subject of data set [4] is Listeria monocytogenes (KCTC 3710). The class given is cell-based. The conditions noted are these: 2 × 10^5 CFU/ml, 24 h at 37° C, average of 3–4 independent experiments.
Excerpt: as §1, §2

Data set [5] concerns Salmonella typhimurium (KCTC 1926). The class given is cell-based. The conditions noted are these: 2 × 10^5 CFU/ml, 24 h at 37° C, average of 3–4 independent experiments.
Excerpt: as §1, §2

A further data set relates to E. coli CCARM 1229. The class given is cell-based, Escherichia coli. The conditions noted are these: drug-resistant strain, 2 × 10^5 CFU/ml, 24 h at 37° C, average of 3–4 independent experiments.
Excerpt: as §1
The antibacterial activities of the peptides against Gram-negative, Gram-positive and antibiotic-resistant bacterial strains were evaluated using the microbroth dilution method (Park et al. [2003]). Aliquots of culture medium containing bacterial suspensions in mid-logarithmic phase at a concentration of 2 × 10^5 colony forming units (CFU)/ml were added to each well of a multiwell plate containing peptide solution serially diluted 2× in 10 mM sodium phosphate buffer (pH 7.2) or phosphate-buffered saline (PBS, 1.5 mM KH2PO4, 2.7 mM KCl, 8.1 mM Na2HPO4, 150 mM NaCl, pH 7.2). Growth inhibition was evaluated by measuring the absorbance at 620 nm using a Versa-Max microplate Elisa Reader (Molecular Devices Co., Sunnyvale, CA, USA) after 24 h of incubation at 37° C. […]

The mark [6] stands for this setting: 10 mM sodium phosphate buffer, pH 7.2.
Setting [7] is: PBS, pH 7.2 (number in parentheses).

Like-named read-outs stand apart in the source and are kept apart here.

Regarding `CC[C@H](C)[C@H](NC(=O)CN)C(=O)NCC(=O)N[C@@H](C)C(=O)N[C@H](C(=O)N[C@@H](CC(C)C)C(=O)N[C@@H](CCCCN)C(=O)N[C@H](C(=O)N[C@@H](CC(C)C)C(=O)N[C@H](C(=O)N[C@H](C(=O)NCC(=O)N[C@@H](CC(C)C)C(=O)N1CCC[C@H]1C(=O)N[C@@H](C)C(=O)N[C@@H](CC(C)C)C(=O)N[C@H](C(=O)N[C@@H](CO)C(=O)N[C@@H](Cc1c[nH]c2ccccc12)C(=O)N[C@H](C(=O)N[C@@H](CCCCN)C(=O)N[C@@H](CCCNC(=N)N)C(=O)N[C@@H](CCCCN)C(=O)N[C@@H](CCCNC(=N)N)C(=O)N[C@@H](CCC(N)=O)C(=O)N[C@@H](CCC(N)=O)C(N)=O)[C@@H](C)CC)[C@@H](C)CC)[C@@H](C)O)[C@@H](C)O)C(C)C)C(C)C` [Melittin, reference compound], the Hemolysis in the data set with human red blood cells (200 μM peptide in PBS pH 7.2, 4 % v/v hRBCs, 60 min at 37° C, absorbance 414 nm, 100 % = 0.1 % Triton X-100, triplicate) turned out to be 100%. Also, the “MHC (minimal hemolytic concentration)” value in the data set with human red blood cells (minimal peptide concentration that produces 10 % hemolysis, hRBCs in PBS) was found to be 0.5 µM. Besides, the MIC is on record as 3.12 (3.12) μM in data set [1] (setting [6]); 3.12 (3.12) μM in data set [1] (setting [7]); 1.56 (1.56) μM in data set [2] (setting [6]); 1.56 (1.56) μM in data set [2] (setting [7]); 1.56 (1.56) μM in data set [3] (setting [6]); 1.56 (1.56) μM in data set [3] (setting [7]). For the same molecule, the MIC is 1.56 (1.56) μM in data set [4] (setting [6]); 1.56 (1.56) μM in data set [4] (setting [7]); 0.39 (0.39) μM in data set [5] (setting [6]); 0.39 (0.39) μM in data set [5] (setting [7]); 3.12 (3.12) μM with E. coli CCARM 1229 (setting [6]); 3.12 (3.12) μM in the data set with E. coli CCARM 1229 (setting [7]).
